Measured values reported in publication PMC12403594, “On the self-assembly of αB-crystallin” (Soft Matter, 2025).

Target: the molecule itself
Assay: static light scattering; day 24 after sample preparation; 10-69 μM αBC; 20 mM sodium phosphate, 0.2 mM EDTA, 0.02% NaN3, pH 8.0; 25 °C; aggregation number from the slope of the excess Rayleigh ratio at q = 0 against concentration

B1: Recombinant human αB-crystallin (natural protein)
chain: MDIAIHHPWIRRPFFPFHSPSRLFDQFFGEHLLESDLFPTSTSLSPFYLRPPSFLRAPSWFDTGLSEMRLEKDRFSVNLDVKHFSPEELKVKVLGDVIEVHGKHEERQDEHGFISREFHRKYRIPADVDPLTITSSLSSDGVLTVNGPRKQVSGPERTIPITREEKPAVTAAPKK
notes: αB-crystallin, human; expressed from a synthetic gene with E. coli-optimized codons in a Pet3a vector; No tag is mentioned; The introduction gives 175 residues for the protein
- stoichiometry N: 17
